Nine molecules from ChEMBL document CHEMBL4371059 (J Med Chem, 2019) can be followed below.

Protein sequences, listed by entry. Tags and fused reporters are not part of them.
UniProt P41145, whole entry: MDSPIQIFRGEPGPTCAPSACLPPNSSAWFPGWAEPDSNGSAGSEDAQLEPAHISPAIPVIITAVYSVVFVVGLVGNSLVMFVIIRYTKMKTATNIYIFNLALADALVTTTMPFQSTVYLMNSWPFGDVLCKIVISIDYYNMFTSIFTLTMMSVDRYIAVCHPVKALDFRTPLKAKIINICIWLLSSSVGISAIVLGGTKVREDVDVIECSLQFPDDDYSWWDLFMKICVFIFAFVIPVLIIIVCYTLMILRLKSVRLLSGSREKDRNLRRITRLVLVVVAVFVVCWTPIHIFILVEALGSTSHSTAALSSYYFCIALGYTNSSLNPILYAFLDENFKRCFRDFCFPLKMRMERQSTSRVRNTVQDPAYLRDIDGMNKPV
UniProt P97266, whole entry: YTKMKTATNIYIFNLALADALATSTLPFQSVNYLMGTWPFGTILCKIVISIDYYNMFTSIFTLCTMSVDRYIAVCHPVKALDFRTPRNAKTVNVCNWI

Each structure is given as a SMILES string.

In the first data set the target is Kappa-type opioid receptor (Homo sapiens, UniProt P41145).
Assay: not given
Conditions: not given
For `CCN1CCN(C(=O)Cc2ccc(Cl)c(Cl)c2)[C@H]2[C@@H]1CCC[C@@H]2N1CCCC1`, the EC50 – broadly, the concentration at which the effect is half-maximal – was 2 nM. This lies in the single-digit nanomolar range. Consider `O=C(Cc1ccc(Cl)c(Cl)c1)N1CCN(Cc2ccc(F)cc2)[C@H]2CCC[C@H](N3CCCC3)[C@H]21`, for which the EC50 turned out to be 32 nM. Same read-out and setting: for `O=C(Cc1ccc(Cl)c(Cl)c1)N1CCN(C(=O)COCCF)[C@H]2CCC[C@H](N3CCCC3)[C@H]21` the value was 10 nM; for `CCCCN1CCN(C(=O)Cc2ccc(Cl)c(Cl)c2)[C@@H]2[C@@H](N3CCCC3)CCC[C@@H]21` (racemic), 6 nM. Still for that read-out and setting: for `CCCN1CCN(C(=O)Cc2ccc(Cl)c(Cl)c2)[C@@H]2[C@@H](N3CCCC3)CCC[C@@H]21` (racemic) the value was 1.6 nM. The molecule `O=C(Cc1ccc(Cl)c(Cl)c1)N1CCN[C@H]2CCC[C@H](N3CCCC3)[C@H]21` registered an EC50 of 1.2 nM.

`CN1CCN(C(=O)Cc2ccc(Cl)c(Cl)c2)[C@H]2[C@@H]1CCC[C@@H]2N1CCCC1` showed an EC50 of 3.4 nM. This EC50 lies about 2.8-fold higher than the previous one.

In another data set the target is Mu-type opioid receptor (Cavia porcellus, UniProt P97266). Briefly: Displacement of [3H]DAMGO from MOR in guinea pig brain membranes at 1 uM after 120 mins by scintillation counting method relative to control. The conditions noted are these: 2 h. For orientation: Displacement assays read how much labelled ligand stays bound in the presence of the test substance.
`O=C(Cc1ccc(Cl)c(Cl)c1)N1CCN(CCF)[C@H]2CCC[C@H](N3CCCC3)[C@H]21` yielded an inhibition (INH) of 12%. Molecule `O=C(Cc1ccc(Cl)c(Cl)c1)N1CCN(C(=O)COCCF)[C@H]2CCC[C@H](N3CCCC3)[C@H]21` had an inhibition (INH) of 0%.

Regarding `O=C(Cc1ccc(Cl)c(Cl)c1)N1CCN(CCCCF)[C@H]2CCC[C@H](N3CCCC3)[C@H]21`, the inhibition (INH) was determined as 8%.
